Experimental findings from PubChem BioAssay AID504634 (The Scripps Research Institute Molecular Screening Center, 2011) are described below.

Protein sequences, listed by entry. Tags and fused reporters are not part of them.
UniProt P47898, whole entry: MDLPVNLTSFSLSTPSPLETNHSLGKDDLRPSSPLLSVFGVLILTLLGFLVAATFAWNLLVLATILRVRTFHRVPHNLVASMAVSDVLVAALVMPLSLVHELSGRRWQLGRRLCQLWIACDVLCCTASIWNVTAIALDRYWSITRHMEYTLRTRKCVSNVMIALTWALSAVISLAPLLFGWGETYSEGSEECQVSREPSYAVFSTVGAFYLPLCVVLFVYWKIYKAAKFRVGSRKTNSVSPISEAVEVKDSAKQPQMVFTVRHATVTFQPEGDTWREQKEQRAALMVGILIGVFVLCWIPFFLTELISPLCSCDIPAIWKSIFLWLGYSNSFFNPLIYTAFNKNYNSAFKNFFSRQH

Molecules are shown by their SMILES. The list shows a part of the results, in another mix than the full data. Some of these compounds have results that are not shown, active ones among them. Calls of active or inactive are those of the source. Rule as the data show it: active = inhibition mostly above about 23% (no sharp cut-off); inactive = mostly below about 18%.

In general, inhibition refers to the change of the read-out against control, counted positive when it falls.

This experiment has as its target 5-hydroxytryptamine receptor 5A (Homo sapiens) (UniProt P47898). Kind of experiment: inverse agonism at human 5-HT5A receptor – cell-based, luminescence, full-deck HTS, counter-screen for OPRM1-OPRD1 heterodimer inverse agonist project, primary screen (AID 504634).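 Also: 0% = cells with DMSO and 100% = no-cell wells with DMSO.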 The following applies: HTR5A cell line, at 9.3 µM, stronger effect = higher value.
Consider `Cc1ccc(C(=O)NCC2(N3CCCCC3)CCCCC2)cc1`, for which the inhibition was inactive: -9.46%.
For `CC(C)N1C(=O)CC2(CCN(CCOC(=O)C(O)(c3ccccc3)c3ccccc3)CC2)C1=O` the value was inactive: 0.97%.
Turning to `COc1cc(SC)ccc1C(=O)NCC1(N(C)C)CCCCC1`, the inhibition is inactive: 14.3%.
As to `CCN(CC)CC(C)C(C)OC(=O)C(O)(c1ccccc1)c1ccccc1` (stereo not given), the inhibition was inactive: -5.94%.
The figure for `CN1[C@@H]2CC[C@H]1CC(OC(=O)C(O)(c1ccccc1)c1ccccc1)C2` (stereo not given in full) is inactive: 5.71%; for `O=C(NCC1(N2CCCCC2)CCCCC1)c1cc([N+](=O)[O-])ccc1Cl` it is inactive: -1.91%.
For `O=C(NCC1(N2CCCCC2)CCCCC1)c1cccc(Br)c1`, the inhibition was inactive: -13.7%.
In the case of `CCN1CCCC(OC(=O)C2(O)c3ccccc3C=Cc3ccccc32)C1` (stereo not given), the inhibition is inactive: -37.7%.
For `Cc1cc(C(=O)NCC2(N3CCCCC3)CCCCC2)ccc1[N+](=O)[O-]`, the inhibition is inactive: 10.2%.
In the case of `COc1ccc(C(=O)NCC2(N(C)C)CCCCC2)cc1`, the inhibition is inactive: 18.7%.
Consider `O=C(NCC1(N2CCCCC2)CCCCC1)c1cc(F)c(F)cc1Cl`, for which the inhibition was inactive: -2.08%.
Consider `C=CCN1CCN(CCOC(=O)C(O)(c2ccccc2)c2ccccc2)CC1`, for which the inhibition was inactive: -7.17%.
As to `CN(C)c1ccc(C(=O)NCC2(N(C)C)CCCCC2)cc1`, the inhibition is inactive: 15.8%.
Consider `CN(C)C1CCCC1OC(=O)C(O)(c1ccccc1)c1ccccc1` (stereo not given), for which the inhibition was inactive: -2.87%.
The figure for `Cc1ccccc1C(=O)NCC1(N2CCCCC2)CCCCC1` is inactive: 21.7%; for `O=C(NCC1(N2CCCCC2)CCCCC1)c1cccc(Cl)c1` it is inactive: -3.41%.
The figure for `COc1ccc(Cl)cc1C(=O)NCC1(N(C)C)CCCCC1` is inactive: -23.9%; for `COc1cccc(C(=O)NCC2(N3CCCCC3)CCCCC2)c1` it is inactive: 1.8%; for `COc1cc(C(=O)NCC2(N(C)C)CCCCC2)c([N+](=O)[O-])cc1OC` it is inactive: 4.27%.
Consider `CN(C)C1(CNC(=O)c2ccc(Br)cc2)CCCCC1`, for which the inhibition was inactive: 2.53%.
Consider `CN(C)c1cccc(C(=O)NCC2(N(C)C)CCCCC2)c1`, for which the inhibition is inactive: 6.5%.
In the case of `O=C(OCCN1CCCC1)C(O)(c1ccccc1)c1ccccc1`, the inhibition is inactive: -5.16%.
On to `CC(C)Oc1ccc(C(=O)NCC2(N(C)C)CCCCC2)cc1`, for which the inhibition is inactive: -0.35%.
Take `COc1ccc(Br)c(C(=O)NCC2(N3CCCCC3)CCCCC2)c1`: the inhibition was inactive: 4.02%.
With `O=C(OC1CN2CCC1CC2)C(CO)(c1ccccc1)c1ccccc1` (stereo not given), the inhibition was inactive: 12.1%.
